This is an account of results in PubChem BioAssay AID602346 (Broad Institute, 2012).

Only a part is listed here, and it is no random draw. Active and inactive are the calls of the source. Rule as the data show it: active = inhibition above about 50% (passing the limit was not always enough); inconclusive = no clear call, values can overlap the other calls; inactive = below about 31%.

The nature of the assay: HIV Vif self-association inhibitors, primary screen, imaging, HEK293T, single point (AID 602346). As to conditions: HEK293T cells, Vif self-association by quenched fluorescence, 24 h, at 7.49 µM, stronger effect = higher value.
Regarding `Cc1nn(-c2ccccc2)c2c1P(=O)(N1CCOCC1)N(C)C(c1ccccc1)=N2` (stereo not given), the inhibition is inactive: 0.12%.

Take `Cc1ccc(C(=O)OC2CN3CCC2CC3)cc1` (stereo not given): the inhibition was inactive: 16%.

Regarding `CC1CCC(C(C)C)C(OP(=O)(Nc2ccccn2)c2ccccc2)C1` (stereo not given), the inhibition is inactive: -11.1%.

Regarding `CN(C)C1(CNC(=O)c2ccc(S(C)(=O)=O)cc2)CCCCC1`, the inhibition was inactive: 4.16%.

`O=C(/C=C/c1ccccc1)OC1CN2CCC1CC2` (stereo not given): the inhibition was inactive: -17%.

For the molecule `CCCC1OP(=O)(Nc2ccccc2)OCC1CC` (stereo not given), the inhibition is inactive: 10.9%.

Turning to `O=P1(Nc2ncccn2)COc2ccccc2OC1`, the inhibition is inactive: 2.29%.

With `Nc1cccc([As](=O)(O)c2ccccc2)c1`, the inhibition is inactive: 1.82%.

`NS(=O)(=O)c1cccc(NC(=O)COC(=O)C(O)(c2ccccc2)c2ccccc2)c1`: the inhibition is inactive: 0.6%.

Take `O=P1(Nc2ccc(Br)cn2)COc2ccccc2OC1`: the inhibition is inactive: -13.3%.

In the case of `O=[As](O)(c1cccs1)c1cccs1`, the inhibition is inactive: -0.0285%.

Regarding `Cc1ccc(OCC(=O)OC2CN3CCC2CC3)cc1` (stereo not given), the inhibition was inactive: -0.832%.

`CCC1=CC2Cc3nc4ccc(Cl)cc4c(N)c3C(C1)C2` (stereo not given): the inhibition is inactive: -0.395%.

With `O=P1(Nc2ccccn2)COc2ccccc2OC1`, the inhibition was inactive: -7.04%.

For `CCOP(=O)(NC(=NC(C)c1ccccc1)NC(C)c1ccccc1)OCC` (stereo not given), the inhibition was inactive: -10.8%.

As for `CN(CCCl)Cc1cc(Cl)c(NC2=NCCN2)c(Cl)c1`, the inhibition is inactive: -4.38%.

In the case of `CCOP(=O)(Nc1ccc(C)cn1)OCC`, the inhibition is inactive: 20.2%.

Consider `Clc1n[nH]nc1-c1nn[nH][15n]1`, for which the inhibition was inactive: -14.5%.

Consider `O=P1(N(CCCl)CCCl)NCCC(C(F)(F)F)O1` (stereo not given), for which the inhibition was inactive: 1.41%.

Take `CC(C)(C)C(=O)NC(Sc1ncccn1)C(Cl)(Cl)Cl` (stereo not given): the inhibition is inactive: -1.77%.

As to `COc1ccccc1CNC(=O)COC(=O)C(O)(c1ccccc1)c1ccccc1`, the inhibition is inactive: 13.1%.

Consider `CN(C(=O)Cc1ccc(Cl)c(Cl)c1)[C@@H]1CCCC[C@H]1N1CCCC1`, for which the inhibition is inactive: -3.56%.

Take `CC(C)/C=N\N=C(\N)N[N+](=O)[O-]`: the inhibition was inactive: -22.2%.

For `CC1(CBr)Cn2c(nc3ccccc3c2=O)S1` (stereo not given), the inhibition is inactive: 7.07%.

Consider `O=C(OC1CN2CCC1CC2)c1ccc(Cl)cc1` (stereo not given), for which the inhibition was inactive: 2.05%.

As to `COc1cc(C(=O)NCC2(N3CCOCC3)CCCCC2)cc(Cl)c1OC(C)C`, the inhibition is inactive: -7.06%.

Turning to `O=[As](O)(O)c1cccnc1`, the inhibition was inactive: 2.11%.

Consider `CS(=O)(=O)c1ccc(Cl)c(NC(=O)COC(=O)C(O)(c2ccccc2)c2ccccc2)c1`, for which the inhibition is inactive: 9.51%.

With `O=[As](O)(c1cccc(O)c1)c1cccc(O)c1`, the inhibition is inactive: -15.6%.

For `Cc1cccc(OCC(=O)OC2CN3CCC2CC3)c1` (stereo not given), the inhibition is inactive: 0.048%.

For `Nc1cccc2c([As](=O)(O)O)cccc12`, the inhibition is inactive: 1.01%.

Turning to `Cc1ccc(NCCc2c([N+](=O)[O-])cc([N+](=O)[O-])cc2[N+](=O)[O-])cc1`, the inhibition was inactive: -2.23%.

Regarding `CCCOP(=S)(Nc1nc(N)cc(=O)[nH]1)OCCC`, the inhibition was inactive: 6.08%.

As for `COc1cc(C2NCCC3(OCCO3)C2(C)C)cc(OC)c1OC` (stereo not given), the inhibition was inactive: -1.28%.

As for `CCOP(=O)(Nc1cccc2ccccc12)OCC`, the inhibition was inactive: 1.57%.

`O=P(Nc1nccs1)(Oc1ccccc1)Oc1ccccc1`: the inhibition was inactive: 2.97%.

`CS(=O)(=O)c1cc([N+](=O)[O-])c2no[n+]([O-])c2c1`: the inhibition is inactive: 10.2%.

For the molecule `Nc1ccccc1[As](=O)(O)c1ccccc1`, the inhibition is inactive: -7.02%.

Regarding `N#CCCN(C(=O)COC(=O)C(O)(c1ccccc1)c1ccccc1)c1ccc(F)cc1`, the inhibition was inactive: 4.95%.

As to `CN(C(=O)Cc1ccccc1)[C@@H]1CC[C@]2(CCCO2)C[C@H]1N1CCCC1`, the inhibition was inactive: -5.35%.

Consider `CCOP1(=S)c2c(C)nn(CCC#N)c2N=C(c2ccc(F)cc2)N1C` (stereo not given), for which the inhibition was inactive: -6.14%.

Turning to `CN(C)C(=O)c1cc([N+](=O)[O-])cc2c1-c1c(cc([N+](=O)[O-])cc1[N+](=O)[O-])C2=O`, the inhibition was inactive: -35.8%.

For `O=[N+]([O-])c1ccc2c(c1)nnn2O`, the inhibition was inactive: -2.24%.

Regarding `CN(C(=O)Cc1ccc(Cl)c(Cl)c1)[C@H]1CC[C@@]2(CCCO2)C[C@@H]1N1CCCC1`, the inhibition is inactive: -8.25%.

Regarding `C[As](=O)(O)c1cccc(C(=O)O)c1`, the inhibition was inactive: -0.471%.

On to `O=[As](O)(c1ccc(O)cc1)c1ccccc1O`, for which the inhibition is inactive: -0.236%.

Regarding `COc1cc(C(=O)NCC2(N3CCOCC3)CCCCC2)ccc1OCC(C)C`, the inhibition was inactive: -2.2%.

In the case of `O=[N+]([O-])c1ccc(-c2cc([N+](=O)[O-])c(O)c([N+](=O)[O-])c2)cc1`, the inhibition was inactive: 8.5%.

As to `Cc1ccc(OP(=O)(Nc2ccc([N+](=O)[O-])cn2)Oc2ccc(C)cc2)cc1`, the inhibition was inactive: 4.6%.

Regarding `Cc1ccc2nc3c(c(C)c2c1)CC(C(Cl)Cl)S3` (stereo not given), the inhibition was inactive: 0.324%.

Take `ClCCSc1nnc(-c2cccnc2)o1`: the inhibition is inactive: 10.5%.

In the case of `CC(C)c1ccc(OP(=O)(Nc2ccccn2)Oc2ccccc2F)cc1` (stereo not given), the inhibition is inactive: -9.3%.

On to `COC(=O)C1(C)COP(=O)(N2CCCCCC2)OC1` (stereo not given), for which the inhibition is inactive: -4.63%.

In the case of `O=C(OC1CN2CCC1CC2)c1cccc2[nH]cnc12` (stereo not given), the inhibition is inactive: 1.74%.

In the case of `CCN(CC)C(=S)SC(NC=O)C(Cl)(Cl)Cl` (stereo not given), the inhibition was inactive: 3.39%.

`CC(C)NC(=O)NP(=O)(Oc1ccccc1)Oc1ccccc1`: the inhibition is inactive: -4.21%.

Consider `O=[N+]([O-])c1cc([N+](=O)[O-])c(-c2ccn[nH]2)s1`, for which the inhibition was inactive: 0.38%.

On to `Cc1c2c(nc3ccccc13)SC(C(Cl)Cl)C2` (stereo not given), for which the inhibition was inactive: 6.17%.

Consider `O=C(OC1CN2CCC1CC2)C12CC3CC(CC(C3)C1)C2` (stereo not given), for which the inhibition was inactive: 2.8%.

For the molecule `Cc1cc(=O)[nH]c(N[N+](=O)[O-])n1`, the inhibition is inactive: 2.53%.

As to `O=P1(N(CCCl)CCCl)Nc2ccccc2N1`, the inhibition is inactive: -2.25%.

As to `O=P1(N(CCCl)CCCl)OCCCN1CCCl` (stereo not given), the inhibition was inactive: 6.93%.

`COc1ccc2nc(NP(=O)(c3ccccc3)c3ccccc3)sc2c1`: the inhibition was inactive: 3.06%.

With `COc1cc(I)ccc1[As](=O)(O)O`, the inhibition is inactive: 9.36%.

For `O=[N+]([O-])c1cc(Oc2ccc([N+](=O)[O-])cc2C(F)(F)F)cc([N+](=O)[O-])c1`, the inhibition was inactive: -8%.

With `COc1ccc(N/C(=N/P(=O)(N2CCOCC2)N2CCOCC2)N2CCOCC2)cc1`, the inhibition was inactive: 0.683%.

Consider `COC(=O)C1(C)COP(=O)(N2CCCC2)OC1` (stereo not given), for which the inhibition was inactive: 4.79%.

Turning to `O=C(COc1ccccc1)OC1CN2CCC1CC2` (stereo not given), the inhibition was inactive: 5.31%.

As for `O=C(Nc1ccncc1[N+](=O)[O-])c1ccc([N+](=O)[O-])cc1[N+](=O)[O-]`, the inhibition is inactive: -4.12%.

Take `O=C(OC1CN2CCC1CC2)c1cccc([N+](=O)[O-])c1` (stereo not given): the inhibition was inactive: -3.56%.

As to `CSc1ccc(Nc2c([N+](=O)[O-])cc([N+](=O)[O-])cc2[N+](=O)[O-])cc1`, the inhibition is inactive: -14.2%.

Consider `CCOC(=O)c1ccc(NC(=O)C(C)(CCl)SC)cc1` (stereo not given), for which the inhibition is inactive: 3.07%.

Regarding `O=C(O)C(O)c1ccc(N(CCCl)CCCl)cc1` (stereo not given), the inhibition was inactive: -3.98%.

Take `CCOC(=O)Nc1ccc([As](=O)(O)O)c(O)c1`: the inhibition was inactive: 2.66%.

Take `CC1CCNP(=O)(N(CCCl)CCCl)O1` (stereo not given): the inhibition is inactive: 26.7%.

Turning to `CCCCOc1ccc(C(=O)NCC2(N3CCCCC3)CCCCC2)cc1OC`, the inhibition was inactive: 15.3%.

As to `Cc1cc(SC(NC(=O)c2ccccc2)C(Cl)(Cl)Cl)nc(C(C)C)n1` (stereo not given), the inhibition was inactive: -2.47%.

For the molecule `Cc1cc(SC(NC=O)C(Cl)(Cl)Cl)ncn1` (stereo not given), the inhibition is inactive: 0.503%.

As for `O=P(Nc1ccccn1)(c1cccc2ccccc12)c1cccc2ccccc12`, the inhibition was inactive: 12.2%.

Turning to `O=[N+]([O-])c1ccc(Nc2ccc(Oc3ccc([N+](=O)[O-])cc3[N+](=O)[O-])cc2)c([N+](=O)[O-])c1`, the inhibition is inactive: -3.41%.

On to `O=P1(N(CCCl)CCCl)OCCCS1` (stereo not given), for which the inhibition was inactive: 0.625%.

Take `O=C(Nc1cc([As](=O)(O)O)ccc1O)c1ccccc1`: the inhibition is inactive: 0.043%.

On to `O=[N+]([O-])c1ncn(CCn2ncnc2[N+](=O)[O-])n1`, for which the inhibition was inactive: 11.6%.

`CC(C)(C)C(=O)NC(Sc1ccncn1)C(Cl)(Cl)Cl` (stereo not given): the inhibition was inactive: -0.755%.

Regarding `O=C(O)CNc1ccc([As](=O)(O)O)cc1`, the inhibition is inactive: -1.18%.

In the case of `O=[N+]([O-])c1cccc(NC2=NCC(CBr)S2)c1` (stereo not given), the inhibition was inactive: -0.839%.

`COC(=O)C1(C)COP(=O)(Nc2ccccc2)OC1` (stereo not given): the inhibition is inactive: -8.81%.

Regarding `COc1ccc(C2=NCC(CBr)S2)cc1` (stereo not given), the inhibition is inactive: 6.04%.

Regarding `Cc1ccc(NP(=O)(Oc2ccccc2)Oc2ccccc2)nc1`, the inhibition was inactive: -8.88%.

In the case of `O=[N+]([O-])c1cc([N+](=O)[O-])c(CCNc2ccccc2)c([N+](=O)[O-])c1`, the inhibition was inactive: 4.53%.

As for `CC(=O)N1C2C3N(C(C)=O)C1C1N(C(C)=O)C(C(N1C(C)=O)N3C(C)=O)N2C(C)=O`, the inhibition was inactive: 7.62%.

In the case of `O=[N+]([O-])c1cccc2n[nH]nc12`, the inhibition was inactive: -5.89%.

As for `CCN(/C(=N/P(=O)(N1CCOCC1)N1CCOCC1)N1CCOCC1)c1ccc(OC)cc1`, the inhibition is inactive: -0.929%.

On to `Nc1ccc([As](=O)(O)c2ccc(N)cc2)cc1`, for which the inhibition was inactive: 17.6%.

Take `C[N+]1=C2C=CC=CC=C2SC12C([N+](=O)[O-])=CC([N+](=O)[O-])=C[C-]2[N+](=O)[O-]` (stereo not given): the inhibition was inactive: -11.9%.

Regarding `CC1CCN(C(=O)Oc2c(Cl)cc(Cl)c3cccnc23)CC1`, the inhibition was inactive: -2.89%.

Regarding `CC(C)=N/N=C(\N)N[N+](=O)[O-]`, the inhibition is inactive: 3.95%.

Take `CC(C)c1nc(Nc2ccccc2)n(P(=O)(N(C)C)N(C)C)n1`: the inhibition was inactive: -3.5%.

`CN(C)C(=O)OCCc1n(C)cc[n+]1C`: the inhibition was inactive: 0.443%.

On to `CN(C(=O)Cc1ccc(Cl)c(Cl)c1)[C@H]1CCCC[C@H]1N1CCCC1`, for which the inhibition was inactive: -8.36%.

The term inhibition denotes the change of the read-out against control, counted positive when it falls.
